# Target: Delta-type opioid receptor (Homo sapiens, UniProt P41143)
# Chains of the proteins cited; added tags and fusions are not shown.
# UniProt P41143, whole entry, looked up: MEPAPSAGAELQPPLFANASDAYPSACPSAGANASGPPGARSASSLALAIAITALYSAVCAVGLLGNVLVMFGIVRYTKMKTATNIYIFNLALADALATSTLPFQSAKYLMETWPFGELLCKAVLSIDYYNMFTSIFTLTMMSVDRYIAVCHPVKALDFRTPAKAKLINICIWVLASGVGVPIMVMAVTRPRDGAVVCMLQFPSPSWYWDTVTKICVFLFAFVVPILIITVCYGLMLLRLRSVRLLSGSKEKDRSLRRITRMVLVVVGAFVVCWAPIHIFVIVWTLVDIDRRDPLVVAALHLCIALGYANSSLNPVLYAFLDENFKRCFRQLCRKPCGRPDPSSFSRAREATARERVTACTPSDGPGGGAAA
# Experiment: ASSAY_NAME: ChEBML_146877 DESCRIPTION: Inhibition of Opioid receptor delta 1 by displacing 1 nM [3H]DPDPE in guinea pig brain membrane
row,SMILES,IC50 [nM]
1,C=C(COc1ccc2c3c1O[C@H]1c4[nH]c5ccccc5c4C[C@@]4(O)[C@@H](C2)N(CC2CC2)CC[C@]314)C(=O)OC,0.8
2,C=C(COc1ccc2c3c1O[C@H]1[C@H](O)CC[C@@]4(O)[C@@H](C2)N(CC2CC2)CC[C@]314)C(=O)OC,34
3,C=C(COc1ccc2c3c1O[C@H]1[C@H](OCC(=C)C(=O)OC)CC[C@@]4(O)[C@@H](C2)N(CC2CC2)CC[C@]314)C(=O)OC,3.2
4,C=C(COc1ccc2c3c1O[C@H]1c4[nH]c5c(c4C[C@@]4(O)[C@@H](C2)N(CC2CC2)CC[C@]314)C[C@@]1(O)[C@H]2Cc3ccc(OCC(=C)C(=O)OC)c4c3[C@@]1(CCN2CC1CC1)[C@H]5O4)C(=O)OC,50
5,C=C(COc1ccc2c3c1O[C@H]1C(=O)CC[C@@]4(O)[C@@H](C2)N(C)CC[C@]314)C(=O)OC,21
6,C=C(COc1ccc2c3c1O[C@H]1C(=O)CC[C@@]4(O)[C@@H](C2)N(CC2CC2)CC[C@]314)C(=O)OC,17
7,COC(=O)C(C)COc1ccc2c3c1O[C@H]1C(=O)CC[C@@]4(O)[C@@H](C2)N(CC2CC2)CC[C@]314 (some centres not stated),> 1000

# Reference: BindingDB's records for 1335078
